Earlier results as cited in PMC10629879, “Endocytosis of insulin at the blood-brain barrier” (Frontiers in drug delivery, 2022).

Test system: blood-brain barrier
Conditions: ref Banks et al., 1999; cited from earlier work
Description: Transport of insulin across the BBB is unidirectional (from blood to brain) ([Duffy and Pardridge, 1987]; [Schwartz et al., 1991]; [Cashion et al., 1996]), occurs in a saturable manner ([Schwartz et al., 1991]; Banks et al., 1997a), can occur independent of the endothelial insulin receptor ([Hersom et al., 2018]; [Rhea et al., 2018]), and varies by brain region ([Banks and Kastin, 1998]). […] Additionally, there are regional differences in the ... || To investigate whether monensin pre-treatment in vivo could impact insulin receptor surface binding, we utilized ^125I-S961, which binds to the insulin receptor with high affinity. […] There were no post-hoc differences.

## insulin
  insulin transport rate of the olfactory bulb relative to the whole brain transport rate (in words): nearly seven times greater
